Results from IntAct's records for PubMed 24879152.

B1: Glycogen synthase kinase-3 beta (Homo sapiens), P49841 (parent)
chain: MSGRPRTTSFAESCKPVQQPSAFGSMKVSRDKDGSKVTTVVATPGQGPDRPQEVSYTDTKVIGNGSFGVVYQAKLCDSGELVAIKKVLQDKRFKNRELQIMRKLDHCNIVRLRYFFYSSGEKKDEVYLNLVLDYVPETVYRVARHYSRAKQTLPVIYVKLYMYQLFRSLAYIHSFGICHRDIKPQNLLLDPDTAVLKLCDFGSAKQLVRGEPNVSYICSRYYRAPELIFGATDYTSSIDVWSAGCVLAELLLGQPIFPGDSGVDQLVEIIKVLGTPTREQIREMNPNYTEFKFPQIKAHPWTKVFRPRTPPEAIALCSRLLEYTPTARLTPLEACAHSFFDELRDPNVKLPNGRDTPALFNFTTQELSSNPPLATILIPPHARIQAAASTPTNATAASDANTGDRGQTNNAASASASNST
partner: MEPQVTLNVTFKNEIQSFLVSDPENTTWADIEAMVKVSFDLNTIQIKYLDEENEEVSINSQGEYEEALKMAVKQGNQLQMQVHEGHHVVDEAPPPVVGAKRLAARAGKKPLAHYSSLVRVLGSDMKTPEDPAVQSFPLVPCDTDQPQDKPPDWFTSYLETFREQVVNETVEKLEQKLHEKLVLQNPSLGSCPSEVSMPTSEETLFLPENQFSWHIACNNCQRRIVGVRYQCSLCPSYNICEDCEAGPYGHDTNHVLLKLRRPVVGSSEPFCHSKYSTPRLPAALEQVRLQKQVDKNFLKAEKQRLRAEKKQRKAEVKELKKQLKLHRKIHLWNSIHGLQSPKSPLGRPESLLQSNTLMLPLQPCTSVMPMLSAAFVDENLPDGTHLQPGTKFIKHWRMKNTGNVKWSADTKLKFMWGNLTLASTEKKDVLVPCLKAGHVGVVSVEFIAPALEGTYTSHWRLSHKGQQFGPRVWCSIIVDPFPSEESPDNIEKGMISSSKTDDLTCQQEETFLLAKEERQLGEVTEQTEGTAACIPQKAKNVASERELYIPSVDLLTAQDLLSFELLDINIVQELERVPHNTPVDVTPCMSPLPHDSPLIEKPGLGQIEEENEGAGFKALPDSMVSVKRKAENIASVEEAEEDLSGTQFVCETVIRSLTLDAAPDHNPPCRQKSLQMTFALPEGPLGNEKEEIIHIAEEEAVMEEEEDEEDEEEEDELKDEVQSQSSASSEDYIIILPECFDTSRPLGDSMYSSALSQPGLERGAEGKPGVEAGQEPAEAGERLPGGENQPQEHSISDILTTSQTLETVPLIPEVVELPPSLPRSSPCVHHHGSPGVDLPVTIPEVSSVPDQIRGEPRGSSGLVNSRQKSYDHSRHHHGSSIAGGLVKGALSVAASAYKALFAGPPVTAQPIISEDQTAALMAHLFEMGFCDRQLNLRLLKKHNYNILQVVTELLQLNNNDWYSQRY

Variants of: B1
Conditions: with nbr1_human NBR1, Q14596

Row | Variant | effect of a mutation on the interaction
1 | S9A | with no effect
2 | K85A | disrupting interaction strength
